Binding of CDR-mutated scFvs to a peptide of the spike HR2 region

The measurements come from Engelhart et al. 2022 (doi:10.1038/s41597-022-01779-4) through the FLAb antibody collection.

Target: peptide PDVDLGDISGINAS, taken from heptad repeat 2 (HR2) of SARS-CoV-2 spike.

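Phage display of a naive human antibody library on the peptide gave the parent. Variants in AAYL52 differ from the parent at up to three CDR positions; double and triple changes were sampled at random. AlphaSeq pools MATa yeast showing the antibodies with MATalpha yeast showing the peptide. The frequency of each diploid, read from paired DNA barcodes, reflects how well the two displayed proteins bind. Scores were corrected for input abundance and mapped to Kd with protein pairs of known affinity run in the same pool. Mating was done three times.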

Each scFv is VH, a 15-residue (Gly4Ser)3 linker, VL, as in the parent Ab-95, and differs from it in the CDRs of the light chain only.
VH: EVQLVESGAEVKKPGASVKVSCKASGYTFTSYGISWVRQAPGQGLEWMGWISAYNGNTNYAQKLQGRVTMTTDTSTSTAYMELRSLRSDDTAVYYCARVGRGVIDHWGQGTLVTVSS
VL: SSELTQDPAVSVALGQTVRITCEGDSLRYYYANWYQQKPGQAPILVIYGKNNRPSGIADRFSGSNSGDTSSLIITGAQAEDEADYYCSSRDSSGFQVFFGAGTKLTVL

Positions count from residue 1 of the parent VL; Y31D puts D in place of Y.
Every variant below is changed at F95 of the VL (sequential numbering).
Scale: log10 of Kd in nM, estimated from mating counts; low values are strong binders.
Replicates are averaged; those with no signal do not enter the mean.
An entry "nd" has no value in the source: the pair was not observed among the diploids in that replicate. This suggests poor binding but is not conclusive.
Order: sorted from the lowest average up, undetected variants last.
Three control strains display no target. For library AAYL52, 28% of the pairings with them gave a signal, with a median of 3.91 and one signal in twenty below 2.90, so weak values seen in few replicates may be background. Also given: how often the same scFv was detected with the empty control strains.

With Y31D+R53V+F95Y the result was 1.19, 0.91, 0.42 (mean 0.84; controls 4 of 9).
With E23N+G94N+F95K the result was 1.70, 1.44, 1.58 (mean 1.57; controls 3 of 9).
With L27N+A32T+F95M the result was 1.92, 1.75, 1.41 (mean 1.70; controls 2 of 9).
With E23M+S55A+F95N the result was 2.08, 2.23, 1.53 (mean 1.95; controls 3 of 9).
With F95R the result was 2.11, 2.02, 1.89 (mean 2.01; controls 1 of 9).
With S89H+S92P+F95C the result was 2.51, 2.34, 2.11 (mean 2.32; controls 2 of 9).
With D91V+G94M+F95Q the result was 2.50, 2.31, 2.18 (mean 2.33; controls 1 of 9).
With A32E+F95W+Q96S the result was 2.36, 2.78, 2.24 (mean 2.46; controls 7 of 9).
With L27H+Y31D+F95Y the result was 2.60, 2.79, 2.05 (mean 2.48; controls 5 of 9).
With G24P+Y31S+F95R the result was 2.59, 2.54, 2.45 (mean 2.52; controls 5 of 9).
With Y31D+G49H+F95D the result was 2.22, 2.46, 3.03 (mean 2.57; controls 0 of 9).
With E23K+S55E+F95G the result was 3.05, 2.58, 2.34 (mean 2.65; controls 0 of 9).
With G49N+F95T the result was 2.93, 2.55, 2.77 (mean 2.75; controls 6 of 9).
With K50G+G94R+F95L the result was 2.86, 3.05, 2.39 (mean 2.77; controls 3 of 9).
With F95V+Q96T+V97L the result was 2.61, 2.56, 3.21 (mean 2.79; controls 5 of 9).
With G49A+S93Q+F95S the result was 2.99, 2.81, nd (mean 2.90; controls 4 of 9).
With S26F+F95K the result was 2.69, 3.21, 2.96 (mean 2.95; controls 5 of 9).
With D25G+P54V+F95V the result was 2.56, 2.81, 3.60 (mean 2.99; controls 4 of 9).
With N52I+P54Y+F95R the result was 3.30, 2.53, 3.38 (mean 3.07; controls 0 of 9).
With A32S+S55F+F95Y the result was 3.06, 2.98, 3.23 (mean 3.09; controls 2 of 9).
With R90A+F95K+V97S the result was 3.12, 3.97, 2.32 (mean 3.14; controls 2 of 9).
With Y31P+S88P+F95V the result was 3.43, 3.24, 3.00 (mean 3.23; controls 2 of 9).
With P54Q+D91T+F95R the result was nd, 3.05, 3.50 (mean 3.27; controls 6 of 9).
With L27N+K50L+F95N the result was 3.31, nd, nd (controls 0 of 9).
With D25G+D91R+F95N the result was 4.10, 3.32, 2.60 (mean 3.34; controls 7 of 9).
With D91N+G94N+F95N the result was nd, nd, 3.51 (controls 1 of 9).
With N52S+F95E+Q96Y the result was 3.54, 4.24, 2.95 (mean 3.58; controls 1 of 9).
With S55Q+R90Q+F95M the result was 3.67, nd, nd (controls 1 of 9).
With S89N+F95N the result was 4.43, 3.07, 3.62 (mean 3.71; controls 2 of 9).
With Y30L+F95K the result was 3.29, 4.07, 3.86 (mean 3.74; controls 1 of 9).
With S89H+S92R+F95R the result was nd, 3.75, nd (controls 4 of 9).
With E23F+R90I+F95N the result was 4.08, 3.80, 3.49 (mean 3.79; controls 5 of 9).
With A32F+D91L+F95I the result was 3.83, nd, nd (controls 4 of 9).
With D25W+R53D+F95M the result was 3.57, 4.83, nd (mean 4.20; controls 2 of 9).
With A32V+K50I+F95P the result was 4.98, 3.49, nd (mean 4.24; controls 5 of 9).
With G24V+Y31I+F95A the result was 4.16, 4.37, nd (mean 4.27; controls 1 of 9).
With S26R+S88Y+F95A the result was nd, nd, 4.37 (controls 3 of 9).
With N33Y+S92T+F95V the result was 4.20, 5.35, 4.28 (mean 4.61; controls 1 of 9).
With L27A+S88L+F95H the result was 5.69, nd, nd (controls 1 of 9).
With G24I+F95Q+Q96Y the result was nd, nd, nd (controls 2 of 9).
With R28W+N33S+F95N the result was nd, nd, nd (controls 0 of 9).
With S88N+G94A+F95I the result was nd, nd, nd (controls 1 of 9).
With N33G+F95L+Q96I the result was nd, nd, nd (controls 2 of 9).
With R28D+G49P+F95A the result was nd, nd, nd (controls 2 of 9).
With L27S+F95P+Q96A the result was nd, nd, nd (controls 2 of 9).
With E23P+R28Y+F95L the result was nd, nd, nd (controls 0 of 9).
With L27H+F95I+V97T the result was nd, nd, nd (controls 0 of 9).